## Ab-95 light chain CDR variants: yeast mating affinities

Antigen: PDVDLGDISGINAS, a 14-residue peptide of the SARS-CoV-2 spike HR2 region.

Ab-95 is the parent antibody, in scFv form: VH, then a (GGGGS)3 linker, then VL. The heavy chain is unchanged in all variants.
VH: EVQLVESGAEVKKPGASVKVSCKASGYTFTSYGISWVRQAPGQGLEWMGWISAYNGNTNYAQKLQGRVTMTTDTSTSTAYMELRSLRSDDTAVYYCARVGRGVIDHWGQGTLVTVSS
VL: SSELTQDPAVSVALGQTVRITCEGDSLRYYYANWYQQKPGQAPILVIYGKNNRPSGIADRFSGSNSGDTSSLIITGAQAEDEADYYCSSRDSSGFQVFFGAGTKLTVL

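The parent was found by panning a naive human phage display library on the peptide. The library (AAYL52) carries one to three amino acid substitutions per variant, with no insertions or deletions. AlphaSeq pools MATa yeast showing the antibodies with MATalpha yeast showing the peptide. The frequency of each diploid, read from paired DNA barcodes, reflects how well the two displayed proteins bind. Read counts were normalised to the haploid input and turned into Kd by a linear fit to BCL2-family pairs of known affinity, for each replicate. There are three technical replicates.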

Variants are written as CDR1, CDR2 and CDR3 of the light chain (limits as in the source). Parent: EGDSLRYYYAN, GKNNRPS, SSRDSSGFQVF. All variants listed here change P54 of the VL, counted from its first residue. Kd is apparent (estimated from mating counts) and averaged on the log scale over replicates with a signal. Smaller is tighter. Where no diploid with the target was found in any replicate, the entry reads "nd": below detection, most likely a poor binder, though not proof of it. Background: pairings of library AAYL52 with three empty control strains gave a value in 28% of cases (median 8.2 µM, 5th percentile 800 nM). Values in that range, when seen in few replicates, are hard to tell from nonspecific mating.

Variant EGDSLRYYWAN / GWNNRHS / SSRDSSGFQVF gave 110 µM (1 of 3 replicates). For EGDSHRYYYAN / GKNNRSS / SSRDSSGQQVF, the assay gave nd (0 of 3 replicates). For EGDSLRYYYAN / GKNNRRW / SSRDSSGFQLF, the assay gave 840 nM (3 of 3 replicates). Variant EGDSLRYNYAN / GKNMRCS / SSRDSSGFQVF gave 14 nM (3 of 3 replicates). Variant EGDSLRYYYAN / GKNERSS / SSMDSSGFQVF gave 2.1 µM (3 of 3 replicates). For EGDNLRYYYAN / GKNNRRS / TSRDSSGFQVF, the assay gave 5.2 µM (1 of 3 replicates). Variant EGDSLRYYYAS / GKNNRNS / GSRDSSGFQVF showed 1.5 µM (2 of 3 replicates).

Variant EGDSLRYYHAN / GKNMRYS / SSRDSSGFQVF gave 400 nM (3 of 3 replicates). Variant IEDSLRYYYAN / GKNNRLS / SSRDSSGFQVF showed 4.0 µM (1 of 3 replicates). For EGDSLRYYDAN / GKNNRGS / SCRDSSGFQVF, the assay gave 3.1 nM (3 of 3 replicates). With EGDSLRYIYAN / GKNNRVS / SSRDSSGFQVF the result was 1.3 µM (3 of 3 replicates). Variant EGDSLRAYYAN / GKNNRFS / SRRDSSGFQVF showed 6.5 µM (1 of 3 replicates). Variant ECDSLRYYYAN / GKNNHAS / SSRDSSGFQVF gave 1.6 µM (3 of 3 replicates). Variant EGDSLVYYYAN / GKNNRAS / SSRDSSGFQVF showed 520 nM (3 of 3 replicates).

For EGDSLRYYYAN / GKNNRCS / SSRDSSGFQVT, the assay gave 5.3 µM (3 of 3 replicates). For EIDSLRYYYAN / GKNTRIS / SSRDSSGFQVF, the assay gave 3.5 µM (1 of 3 replicates). Variant EGDSLRYYYAN / GKNNRES / SSRDSSKFQTF gave nd (0 of 3 replicates). Variant EGDDLRYYYAN / GKNNRSS / QSRDSSGFQVF showed 22 µM (1 of 3 replicates). Variant HGDSLRYYYAN / GKNNRIS / LSRDSSGFQVF gave 450 nM (3 of 3 replicates). For ECDSLRYYYAN / GKNNRGS / SSRDSMGFQVF, the assay gave 7.3 µM (1 of 3 replicates). Variant EGDSLRYYYAN / GKNNRMS / SSRDSSTFQKF gave 2.3 µM (1 of 3 replicates).

For EGFSLRYYYAN / GKNNRCC / SSRDSSGFQVF, the assay gave nd (0 of 3 replicates). Variant EGDSLRYCYAN / GKNNRMS / SSRDSSCFQVF showed 220 nM (3 of 3 replicates). Variant EGDSLRYLYAN / GKNNRAS / SSRDSSGFSVF showed 260 nM (3 of 3 replicates). Variant EGDSLRYYYAN / GKNNRNS / SSRMSSGFQVF showed 1.0 µM (3 of 3 replicates). With EGDSLPYYYAN / GKNNRRS / SSRDSSGFQIF the result was 1.0 µM (3 of 3 replicates). For ECDSLRYYYAN / MKNNRYS / SSRDSSGFQVF, the assay gave 2.8 µM (1 of 3 replicates). For EGDSLRYYYAN / GQNNRKS / SSRDSSGFQVF, the assay gave 220 nM (3 of 3 replicates).

Variant EMCSLRYYYAN / GKNNRFS / SSRDSSGFQVF gave 17 µM (2 of 3 replicates). For EGDSLRYYYAN / GKNNRKS / SSRDSSGHQVF, the assay gave nd (0 of 3 replicates). Variant EGDSLRYYYAN / GKNNRQS / SSRDSSFFQGF showed 28 µM (2 of 3 replicates). For EGDSLRYYYAN / GKNNRFL / SYRDSSGFQVF, the assay gave 10 µM (1 of 3 replicates). Variant VGDSLRYYYAN / GKNNRMS / SSRDSSGFQVN showed 480 nM (2 of 3 replicates). For DGDSLRYYYAN / GKNNSWS / SSRDSSGFQVF, the assay gave 6.1 µM (3 of 3 replicates). Variant EGDSLRYYYAN / GKNNREN / SSRDSSGFTVF gave 580 nM (3 of 3 replicates).

Variant EGDSLRYYNAN / GKNNRKS / SSRDSSGFQNF gave 73 nM (3 of 3 replicates). Variant EGDSLLYMYAN / GKNNRVS / SSRDSSGFQVF showed 230 nM (3 of 3 replicates). With EGDSLRYYYHN / GKNNRTS / SSRDSYGFQVF the result was 50 µM (1 of 3 replicates). For ELDSLRYYYAN / GKNNRIS / WSRDSSGFQVF, the assay gave nd (0 of 3 replicates). With EGDSLRYYYAN / GKNNRHS / SSRDSSNFQVC the result was 860 nM (3 of 3 replicates). Variant VGDSLRYYVAN / GKNNRAS / SSRDSSGFQVF showed 770 nM (3 of 3 replicates). Variant EGDSLAYYYPN / GKNNRGS / SSRDSSGFQVF gave 140 nM (3 of 3 replicates).

Parent in this assay: reference entry 200 nM, copy in this library 180 nM.

Values reported by Engelhart et al. 2022, doi:10.1038/s41597-022-01779-4 (FLAb copy).